# Test results: PubChem BioAssay (Tox21)
# The chains behind the UniProt entries cited, without tags or fusion partners.
# UniProt P07550, whole entry: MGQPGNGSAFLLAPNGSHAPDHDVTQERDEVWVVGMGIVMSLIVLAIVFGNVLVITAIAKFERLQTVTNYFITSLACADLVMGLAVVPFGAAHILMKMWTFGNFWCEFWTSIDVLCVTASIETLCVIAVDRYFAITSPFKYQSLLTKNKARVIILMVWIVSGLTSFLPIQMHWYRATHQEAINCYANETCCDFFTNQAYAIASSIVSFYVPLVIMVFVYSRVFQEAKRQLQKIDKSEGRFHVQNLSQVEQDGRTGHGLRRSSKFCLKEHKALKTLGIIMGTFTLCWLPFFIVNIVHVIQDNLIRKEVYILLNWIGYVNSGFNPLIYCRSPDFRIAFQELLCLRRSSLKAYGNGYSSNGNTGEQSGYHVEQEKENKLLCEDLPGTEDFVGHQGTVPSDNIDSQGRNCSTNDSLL
# The list shows a part of the results, in another mix than the full data. Results filed as inconclusive are left out. The source made the active and inactive calls. Calls come from the whole dose curve.
# Target: Beta-2 adrenergic receptor (Homo sapiens) (UniProt P07550)
# Assay: Adrenergic beta2 receptor (ADRB2) small molecule agonists, cell-based qHTS assay (AID 1963593)
# Settings: CHO-ADRB2 cells, cAMP HTRF, 30 min; at 92.4 µM (top of the series) unless noted
# From the text: National Center for Advancing Translational Sciences [NCATS]
# Division of Preclinical Innovation [DPI]
# U.S. Environmental Protection Agency [EPA]
# National Institutes of Environmental Health Sciences [NIEHS]
# National Toxicology Program [NTP]
# U.S. Food and Drug Administration [FDA]
# Beta adrenergic receptors (Beta-ARs) belong to the G-protein coupled receptor (GPCR) superfamily, includes three subtypes - beta1, beta2, and beta3. Beta1-AR is the predominant receptor subtype expressed in the heart, and beta2-AR is expressed in the kidney, lung, blood vessel and in the heart, and beta3 is found in the adipocytes. Beta1 and 2 ARs couple to Gs protein and elevate cyclic adenosine mono phosphate (cAMP), which activates protein kinase A and leads to the downstream signaling responsible for the physiological actions. Beta-AR agonists or antagonists are the most prescribed therapeutic agents for heart failure and asthma, and these were one of the first target receptors for the rational drug design. Tox21 10K compound library was screened using the cAMP-Gs dynamic assay (Cisbio Bioassays, Shelton, CT) to identify agonists/antagonists of the Gs-coupled human adrenergic, beta2 receptor (ADRB2) in the CHO-ADRB2 cell line (Codex BioSolutions, Inc. Gaithersburg, MD), which stably over-expresses ADRB2. The principle of cAMP-Gs dynamic assay is based on HTRF technology, which facilitates the fluorescence resonance energy transfer (FRET) between donor Europium cryptate and acceptor d2-labeled cAMP. The cAMP generated within cells competes with the red acceptor, d2-labled cAMP, for binding to the monoclonal anti-cAMP-cryptate (Europium donor). An increase in intracellular cAMP leads to the disruption of FRET signal, and the signal is inversely proportional to the cAMP concentration. Isoproterenol HCl (Sigma-Aldrich, St. Louis, MO) was used as a positive control in the screening.
# Tox21 Assay Protocol Summary:
# CHO-ADRB2 cells were dispensed at 1,000/well in 4uL assay medium into white/solid 1536-well plates (Greiner Bio-One North America Inc., Monroe, NC) using a Multidrop Combi dispenser (ThermoFisher Scientific, Waltham, MA). The assay plates were incubated at 37C and 5% CO2 for an overnight (18-20hr). Then positive control and test compounds dissolved in DMSO were transferred to the assay plates at 23nL using a Pintool station (Wako, San Diego, CA). Following the compound and positive control transfer, 1uL stimulation mix containing 100uM IBMX and 25uM Ro-20-1724 was added to each well of the assay plates using BioRAPTR Flying Reagent Dispenser (FRD, Beckman Coulter, Brea, CA). The assay plates were incubated at room temperature for 0.5hr. Then 2.5ul each d2-labled cAMP and anti-cAMP-cryptate solutions were added separately to each well of the assay plates using an FRD and the assay plates were incubated at room temperature for 1hr.
# % is set by controls: 0 for no effect and ±100 for the full control effect.
row,Compound,activation
1,CCOP(=O)(CC)Oc1ccc([N+](=O)[O-])cc1 (stereo not given),inactive: 14.3% [at 42.5 µM]
2,[NH4+].[O-][Cl+3]([O-])([O-])[O-],inactive: 8.46%
3,N#CBr,inactive: 2.15%
4,OCCSCCO,inactive: 0.391% [at 42.5 µM]
5,N=C(N)N[N+](=O)[O-],inactive: -13.1%
6,CN(C)CCCl,inactive: 0.23%
7,Nc1cc([N+](=O)[O-])cc([N+](=O)[O-])c1O,inactive: -8.75%
8,O=[N+]([O-])[O-].[NH4+],inactive: 8.72%
9,Cc1c([N+](=O)[O-])cccc1[N+](=O)[O-],inactive: 22.2%
10,COP(C)(=O)OC,inactive: 3.21%
